Results reported in PubChem BioAssay (NCI).
Only a part is listed here, and it is no random draw.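 For each line, cells grew in 96-well plates with the test compound present at a single concentration for 48 hours.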 Calls of active or inactive are those of the source. Rule for the calls: active = growth percent below 10; inactive = the rest.

Legend:
Test in all cases: NCI-60 one-dose screen, 48 h (100 = growth as untreated, 0 = no growth, -100 = all killed)
Settings in all cases: 10 µM unless noted
[1] = system: NCI/ADR-RES ovarian
[2] = system: T-47D breast
[3] = system: BT-549 breast
[4] = system: MDA-MB-435 melanoma
[5] = system: SW-620 colon
[6] = system: MCF7 breast
[7] = system: HCT-116 colon
[8] = system: HCC-2998 colon
[9] = system: KM12 colon

Measured: growth

CC(Cc1ccccc1)N(CCCl)Cc1ccccc1 (configuration not stated)
inactive: [1] 103% | [2] 86.2% | [3] 100% | [4] 108% | [5] 101% | [6] 97.2% | [7] 92% | [8] 99.9% | [9] 102%

OC(CNCCCl)C(O)C(O)C(O)CNCCCl (configuration not stated)
inactive: [1] 96% | [2] 91.8% | [3] 94.6% | [4] 105% | [5] 95.4% | [6] 91.2% | [7] 96.2% | [8] 108% | [9] 105%

O=C(O)CNc1ccc([As](=O)(O)O)cc1
inactive: [1] 122% | [2] 91.5% | [3] 107% | [4] 99.1% | [5] 97.8% | [6] 94.4% | [7] 101% | [8] 117% | [9] 99.2%

O=P(Cl)(N1CCCCCC1)N1CCCCCC1
inactive: [1] 106% | [2] 106% | [3] 100% | [4] 105% | [5] 106% | [6] 98.8% | [7] 104% | [8] 111% | [9] 99.6%

NCCNCCCl
inactive: [1] 119% | [2] 111% | [3] 110% | [4] 112% | [5] 95% | [6] 94.5% | [7] 103% | [8] 117% | [9] 110%

ClCCNCc1cccc(Cl)c1
inactive: [1] 109% | [2] 96.9% | [3] 101% | [4] 102% | [5] 100% | [6] 90.7% | [7] 102% | [8] 109% | [9] 109%

NC(=O)c1[nH]cnc1/N=N\N(CCCl)CCCl
inactive: [1] 109% | [2] 109% | [3] 240% | [4] 125% | [5] 107% | [6] 109% | [7] 104% | [8] 107% | [9] 115%

Cc1ccc(NCCCl)c2c(=O)c3ccccc3sc12
inactive: [1] 89.4% | [2] 103% | [3] 103% | [4] 90.7% | [5] 97.7% | [6] 91.1% | [7] 97.3% | [8] 94.3% | [9] 106%

CCSC(O)C(Cl)(Cl)Cl (configuration not stated)
inactive: [1] 110% | [2] 104% | [3] 115% | [4] 95.1% | [5] 96.5% | [6] 100% | [7] 104% | [8] 114% | [9] 106%

O=C(OCCNCCCl)c1ccccc1
inactive: [1] 108% | [2] 98.3% | [3] 109% | [4] 98.3% | [5] 97.6% | [6] 87.6% | [7] 106% | [8] 107% | [9] 110%

Fc1cccc(CNCCCl)c1
inactive: [1] 110% | [2] 106% | [3] 113% | [4] 112% | [5] 118% | [6] 106% | [7] 111% | [8] 116% | [9] 96.6%

O=[As](O)(c1ccc(O)cc1)c1ccccc1O
inactive: [1] 98% | [2] 97% | [3] 83.6% | [4] 99.1% | [5] 97% | [6] 96.2% | [7] 88.3% | [8] 73.3% | [9] 106%

CC(Cl)CN(CC(C)Cl)C(=O)c1ccccc1 (configuration not stated)
inactive: [1] 97.9% | [2] 100% | [3] 101% | [4] 107% | [5] 100% | [6] 83% | [7] 96.5% | [8] 100% | [9] 99.3%
